For orientation: IC50 means the concentration at which inhibition is half-maximal.

Chains of the proteins cited; added tags and fusions are not shown. Residues count along the entry.
UniProt P25774, 115-331 limits assumed: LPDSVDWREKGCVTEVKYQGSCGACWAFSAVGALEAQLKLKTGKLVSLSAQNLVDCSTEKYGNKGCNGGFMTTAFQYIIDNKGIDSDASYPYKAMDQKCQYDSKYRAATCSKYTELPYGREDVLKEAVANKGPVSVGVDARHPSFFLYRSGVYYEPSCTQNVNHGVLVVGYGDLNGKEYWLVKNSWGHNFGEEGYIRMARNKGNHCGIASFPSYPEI

The experiment deals with Recombinant human cathepsin S (CatS) (Homo sapiens, UniProt P25774). Kind of experiment: Cathepsin S Inhibition Assay. The class given is biochemical. Particulars: 100 mM sodium acetate pH 5.0, 1 mM DTT, 100 mM NaCl, 20 μM substrate.

As to `CS(=O)(=O)N1CCc2c(c(-c3ccc(C(F)(F)F)cc3)nn2CCCN2CCC(N3C(=O)NCc4ccccc43)CC2)C1`, under “Table 2”, the IC50 was determined as 20 nM.

Regarding `O=C1COc2ccccc2N1C1CCN(CC(O)Cn2cc(-c3cnccn3)c(-c3ccc(C(F)(F)F)cc3)n2)CC1` (centres unmarked), where the note is “Table 1”, the IC50 is 780 nM.

With `Cc1cc(-c2nn(CC(O)CN3CCC(N4C(=O)Cc5ccccc54)CC3)c3c2CN(S(C)(=O)=O)CC3)ccc1Cl` (centres unmarked), the IC50 (Table 3) was determined as 40 nM.

As for `CS(=O)(=O)N1CCc2c(c(-c3ccc(C(F)(F)F)cc3)nn2CC(O)CN2CCC(N3C(=O)COc4ccccc43)CC2)C1` (centres unmarked), the half-maximal inhibitory concentration (IC50) (Table 2) was found to be 20 nM.

Turning to `CS(=O)(=O)N1CCc2c(c(-c3ccc(C(F)(F)F)cc3)nn2CCCN2CCC(N3C(=O)COc4ccc(Cl)cc43)CC2)C1`, the IC50 (Table 3) was determined as 130 nM.

As to `CCS(=O)(=O)c1ccc2c(c1)N(C1CCN(CCCn3nc(-c4ccc(Br)cc4)c4c3CCN(C(N)=O)C4)CC1)C(=O)CO2`, the IC50 (Table 3) was found to be 60 nM.

Take `CC(=O)N1CCc2c(c(-c3ccc(Cl)c(C)c3)nn2CC(O)CN2CCC(N(C(=O)c3ccccc3)c3cccc(Cl)c3)CC2)C1` (centres unmarked): the IC50 (Table 3) came out at 640 nM.

Consider `NC(=O)N1CCc2c(c(-c3ccc(Cl)c(Cl)c3)nn2CCCN2CCC(N3C(=O)Cc4cc(Cl)ccc43)CC2)C1`, for which the 50% inhibitory concentration (IC50) (Table 3) was 60 nM.

Consider `CCS(=O)(=O)c1ccc2c(c1)N(C1CCN(CCCn3nc(-c4ccc(Br)cc4)c4c3CCN(C(=O)OC(C)(C)C)C4)CC1)C(=O)CO2`, for which the IC50 (Table 3) was 1100 nM.

On to `CC(=O)N1CCc2c(c(-c3ccc(Cl)c(C)c3)nn2CC(O)CN2CCC(N3C(=O)Cc4cc(Cl)ccc43)CC2)C1` (centres unmarked), for which the half-inhibitory concentration (IC50) (Table 3) turned out to be 140 nM.

`CC(C)(C)OC(=O)N1CCc2c(c(-c3ccc(Br)cc3)nn2CC(O)CN2CCC(N3C(=O)CCc4ccccc43)CC2)C1` (centres unmarked): the concentration for half-maximal inhibition (IC50) (Table 3) was found to be 1100 nM.

In the case of `CC(=O)N1CCc2c(c(-c3ccc(Cl)c(C)c3)nn2CC(O)CN2CCC(N3C(=O)Cc4ccccc43)CC2)C1` (centres unmarked), the IC50 (Table 3) was found to be 90 nM.

`CS(=O)(=O)N1CCc2c(c(-c3ccc(C(F)(F)F)cc3)nn2CC(O)CN2CCC(N3C(=O)OCc4ccccc43)CC2)C1` (centres unmarked): the IC50 (Table 3) was 90 nM.

With `O=C1CCc2ccccc2N1C1CCN(CCCn2nc(-c3ccc(C(F)(F)F)cc3)c3c2CCNC3)CC1`, the IC50 (Table 3) amounted to 1400 nM.

As to `CC(=O)N1CCc2c(c(-c3ccc(Br)cc3)nn2CC(O)CN2CCC(N3C(=O)Cc4ccccc43)CC2)C1` (centres unmarked), the 50% inhibitory concentration (IC50) (Table 3) came to 150 nM.

Regarding `CS(=O)(=O)N1CCc2c(c(-c3ccc(C(F)(F)F)cc3)nn2CCCN2CCC(N3C(=O)Cc4ccccc43)CC2)C1`, the half-inhibitory concentration (IC50) runs as follows: (Table 1) 30 nM; (Table 3) 40 nM.

As for `CS(=O)(=O)N1CCc2c(c(-c3ccc(C(F)(F)F)cc3)nn2CC(O)CN2CCC(N3C(=O)Cc4cc(Cl)ccc43)CC2)C1` (centres unmarked), the IC50 (Table 1) was 30 nM.

Regarding `CC(=O)N1CCc2c(c(-c3ccc(C(F)(F)F)cc3)nn2CCCN2CCC(N3C(=O)COc4cccc(C)c43)CC2)C1`, the IC50 (Table 3) was determined as 280 nM.

Regarding `Cc1cccc2c1N(C1CCN(CCCn3nc(-c4ccc(Br)cc4)c4c3CCN(C(N)=O)C4)CC1)C(=O)CO2`, the IC50 (Table 3) turned out to be 90 nM.

As to `O=C1NCc2ccccc2N1C1CCN(CCCn2nc(-c3ccc(C(F)(F)F)cc3)c3c2CCNC3)CC1`, for the setting “Table 3”, the IC50 is 1800 nM.

For `CS(=O)(=O)N1CCc2c(c(-c3ccc(C(F)(F)F)cc3)nn2CCCN2CCC(N3C(=O)Cc4ccc(Cl)cc43)CC2)C1`, for the setting “Table 2”, the 50% inhibitory concentration (IC50) came to 40 nM.

For the molecule `CS(=O)(=O)N1CCc2c(c(-c3ccc(Br)cc3)nn2CCCN2CCC(N3C(=O)CCc4ccccc43)CC2)C1`, the IC50 (Table 3) was found to be 70 nM.

`CS(=O)(=O)N1CCc2c(c(-c3ccc(Br)cc3)nn2CCCN2CCC(N3C(=O)NCc4ccccc43)CC2)C1`: the IC50 (Table 3) was 90 nM.

As to `CC(=O)N1CCc2c(c(-c3ccc([N+](=O)[O-])cc3)nn2CC(O)CN2CCC(N3C(=O)Cc4ccccc43)CC2)C1` (centres unmarked), for the setting “Table 3”, the IC50 is 150 nM.

With `CC(C)(C)OC(=O)N1CCc2c(c(-c3ccc(C(F)(F)F)cc3)nn2CC(O)CN2CCC(N3C(=O)CCc4ccccc43)CC2)C1` (centres unmarked), the IC50 (Table 3) amounted to 840 nM.

Source of the values: patent publication US6953793B2 (priority 2000, dated 2005).
